# Antibody variant affinities, Ab-14 light chain, assay B

Data: MIT Lincoln Laboratory AlphaSeq set, Li et al. 2023, doi:10.1038/s41467-023-39022-2, as distributed in FLAb.

The target is the same throughout: PDVDLGDISGINAS, from the HR2 region of SARS-CoV-2 spike.

Parent: Ab-14, a human scFv built as VH, a (GGGGS)3 linker, VL. Only the CDRs of the light chain vary.
VH: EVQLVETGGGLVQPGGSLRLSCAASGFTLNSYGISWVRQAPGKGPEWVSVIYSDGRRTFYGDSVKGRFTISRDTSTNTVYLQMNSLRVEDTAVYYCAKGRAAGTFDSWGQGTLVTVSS
VL: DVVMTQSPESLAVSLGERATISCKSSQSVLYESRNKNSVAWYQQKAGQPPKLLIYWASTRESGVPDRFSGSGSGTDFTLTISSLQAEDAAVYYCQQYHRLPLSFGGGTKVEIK

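This is the validation round: designs drawn from the data on random variants, tested in the same kind of assay. Their group label is 14L_En_HC (En: ensemble of fine-tuned language models; HC: hill climbing; a sequence that several methods proposed may carry one label only). Affinity was read by AlphaSeq, a pooled yeast mating assay with surface-displayed partners. Mating (16 h, 30 °C) was followed by selection of diploids and sequencing of their barcodes. Read counts were normalised to the haploid input and turned into Kd by a linear fit to BCL2-family pairs of known affinity, for each replicate. Mating was done six times.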

The parent's light chain CDRs are KSSQSVLYESRNKNSVA, WASTRES, QQYHRLPLS; each variant's own CDRs replace them letter for letter. Values are log10 of the apparent Kd in nM; lower means stronger binding. A mean of the replicates is given; it leaves out those without a signal. An entry "nd" has no value in the source: the pair was not observed among the diploids in that replicate. This suggests poor binding but is not conclusive. The parent sequence was in this pool as ten entries: three were never detected, three once, and four in most replicates, with averages from 0.34 to 2.37.

CDR-L1,CDR-L2,CDR-L3,log10 Kd (nM) by replicate,"log10 Kd (nM), mean",control signals
MISDLTMYGSRSKNSVA,DLSTRGS,QQYHRLPLS,0.24 0.13 0.13 0.24 0.24 0.30,0.21,1 of 18 (4.00)
HISYSMAHLSKNKNSVA,NQQTRES,QQYHRLPLS,1.18 0.98 0.79 0.70 1.00 1.22,0.98,1 of 18 (2.27)
KISMLQRFQQNAKNNIA,EMNRREE,QQYHRLPLS,0.22 -0.06 0.02 -0.05 -0.14 0.16,0.02,0 of 18
ILYESVGTLSRNKNSVA,DNSTREE,QQYDRLPLS,1.23 nd 1.87 nd 1.54 nd,1.55,0 of 18
MLGMTVMQGMVSRNSVA,QEETRAE,QQYHHLPLS,nd 1.36 0.66 1.76 0.18 1.09,1.01,1 of 18 (0.77)
TLGAATLEESRNKNSVA,EMSLREP,QSYNRLPLS,2.07 1.60 0.70 1.32 3.40 1.34,1.74,0 of 18
TISQATYWESFNKNSVA,QTSTREE,QDYDRLPLS,nd nd nd nd nd 3.34,3.34,1 of 18 (2.45)
KISQNMGETQRMKNSVA,EVSTVPS,QQYWRLPLS,0.78 2.08 1.45 0.60 1.08 1.53,1.25,1 of 18 (2.04)
KISMLQRYESQAKNNIA,EMSRREN,QQYHRLPLS,0.39 0.43 0.42 0.42 0.43 0.32,0.40,1 of 18 (2.19)
IISQVDAYESRTKNSIA,DQSTRGS,QQYDRLPLS,0.86 1.16 1.04 0.92 0.73 1.09,0.97,0 of 18
KLRQSTAYLSENKNSVA,ELTTRGS,QQYFRLPLS,1.35 1.39 0.98 1.26 1.01 1.36,1.22,2 of 18 (3.10)
KLGSMVLLEHGNKNSIA,QQSTREE,QQYDRLPLS,1.09 0.80 0.81 0.72 0.72 0.90,0.84,2 of 18 (3.06)
TIAQSFLMENQFKNSVA,QASTRES,QCYDRLPLS,1.61 1.59 1.83 1.42 0.74 2.70,1.65,2 of 18 (2.04)
KVNGLMNIEQMNSKSVA,QSSTRLN,QQYHRLPLS,0.88 0.76 0.72 0.64 0.91 0.89,0.80,1 of 18 (4.22)
TLTQVQGMESHNNNSVA,DLSTRGS,QQYHRLPLS,1.14 1.99 1.44 1.90 2.09 1.18,1.62,1 of 18 (3.32)
KISGMYQKESKNKNSVA,EMVNRMS,QQYDRLPLS,-0.05 -0.43 -0.60 -0.30 -0.08 -0.59,-0.34,0 of 18
IITQVDAYESRNKNSIA,DQSTRGS,QQYDRLPLS,0.83 0.86 0.72 0.56 0.48 0.60,0.67,1 of 18 (2.48)
KISQNMGETSRNKHSVA,EVSLVPS,QQYWRLPLS,1.57 1.26 1.29 1.46 1.62 1.15,1.39,2 of 18 (2.13)
KLSIMYQHTSRNKNNIA,ERSTREA,QQYHHLPLS,1.08 0.76 0.59 0.53 0.05 0.49,0.58,0 of 18
KISQMVTYESTWHNAIA,QTSEREE,QQYHRLPFS,0.76 0.30 0.52 0.52 0.59 0.68,0.56,0 of 18
KLLQSVNYGSRALNSVA,QMETRED,QQYDRLPLS,0.79 0.57 0.47 0.37 0.44 0.73,0.56,1 of 18 (4.39)
NFSQMVLTGSTLRNSVA,HASTREQ,QQYHRLPLI,1.35 1.57 1.60 1.15 1.70 1.02,1.40,0 of 18
KLYSMTGIESHAKNSLA,DANRRED,QQYHRLPLS,0.60 0.21 0.11 0.34 0.23 0.36,0.31,0 of 18
MIAESVGYMSRNKNSVA,DNSTRED,QCYDRLPLS,0.70 0.39 1.76 0.25 0.26 0.98,0.72,0 of 18
TLGDVTRMESNKKNSIA,DMSNRAN,QQYHRLPLS,0.45 0.18 0.12 0.21 0.46 0.35,0.29,1 of 18 (3.97)
MLSDLVKMGVRNTNNVA,DNSTRGS,QQYDRLPLS,2.06 0.91 1.89 1.97 1.09 4.31,2.04,1 of 18 (3.20)
TLTQSVGMESHNKNSVA,DLSTRGN,QQYHRLPLS,0.63 1.06 0.58 0.99 1.08 0.96,0.88,2 of 18 (3.26)
HMSQVTMYGMWMRNSVA,QTSTRET,QQYDRLPLS,1.19 1.02 1.31 0.98 0.96 1.20,1.11,1 of 18 (3.11)
KLSQSVRMESFQKDNVA,ENSTREA,QDYHRLPLS,nd nd nd nd nd nd,nd,0 of 18
MISQLFMYGSRNRNSIA,QASTREK,QQYDRLPLI,1.51 0.88 1.60 1.04 0.91 1.56,1.25,1 of 18 (3.22)
KISQTFNVGTKNTNSLA,EMSTRGF,QDYHRLPLS,0.34 0.33 0.25 0.06 0.26 0.38,0.27,3 of 18 (2.63)
NISESMYVQSINKNNIA,EMSTRER,QHYHRLPLS,0.33 0.56 0.38 0.15 0.64 0.60,0.44,3 of 18 (3.30)
TLSQAMDMTSRNVNSVA,DLTTRGN,QQYHRLPLS,0.78 0.53 0.55 0.31 0.58 1.26,0.67,0 of 18
KIGHGLTTESRNKNSVA,QTETREE,QHYHRLPLS,1.35 1.21 0.80 0.88 1.38 1.03,1.11,3 of 18 (2.39)
KLSQVTHSEHRNKNSIA,EMVTREK,QQYDRLPLS,2.10 2.03 1.70 2.85 1.80 1.93,2.07,2 of 18 (2.91)
IISGSMLMESRNKNSVA,NAETREY,QHYDRLPLS,0.44 2.00 1.41 2.18 1.90 1.43,1.56,0 of 18
MISGSVMMESRLKNSVA,QTTTRES,QQYDRLPLS,0.43 0.27 1.18 0.79 0.43 0.83,0.65,0 of 18
KISQMSTIESIAHNSVA,QTSTRES,QQYDRLPLS,0.86 0.91 0.74 0.60 0.71 0.72,0.76,4 of 18 (2.97)
HLSYSTDLESVHKNSIA,DLMTRES,QQYHRLPLS,nd nd nd nd nd nd,nd,1 of 18 (0.06)

Extract of 6 entries:

CDR-L1	CDR-L2	CDR-L3	log10 Kd (nM) by replicate	log10 Kd (nM), mean	control signals
KLSQVTHSEHRNKNSIA	EMVTREK	QQYDRLPLS	2.10 2.03 1.70 2.85 1.80 1.93	2.07	2 of 18 (2.91)
KISQMVTYESTWHNAIA	QTSEREE	QQYHRLPFS	0.76 0.30 0.52 0.52 0.59 0.68	0.56	0 of 18
TLGDVTRMESNKKNSIA	DMSNRAN	QQYHRLPLS	0.45 0.18 0.12 0.21 0.46 0.35	0.29	1 of 18 (3.97)
KLLQSVNYGSRALNSVA	QMETRED	QQYDRLPLS	0.79 0.57 0.47 0.37 0.44 0.73	0.56	1 of 18 (4.39)
TLTQVQGMESHNNNSVA	DLSTRGS	QQYHRLPLS	1.14 1.99 1.44 1.90 2.09 1.18	1.62	1 of 18 (3.32)
KISQTFNVGTKNTNSLA	EMSTRGF	QDYHRLPLS	0.34 0.33 0.25 0.06 0.26 0.38	0.27	3 of 18 (2.63)

The authors' rule: three or more of the six replicates give a measured affinity, fewer mean a poor binder. A sequence measured in both rounds can read differently, since the two assays cover different ranges. Three control strains display no target. For all light chain designs, 4% of the pairings with them gave a signal, with a median of 2.64 and one signal in twenty below 1.59, so weak values seen in few replicates may be background. The control count says in how many pairings with the empty strains this scFv gave a signal, with their mean in brackets.